This assay concerns human HL60 cells. Briefly: SWATH-MS proteomics, differential protein representation, akirin2 KO vs WT HL60 cells. Format: cell-based. As for the experimental part:
Total proteins were extracted from WT and akirin2 KO HL60 cells using the AllPrep DNA/RNA/Protein Mini Kit (Qiagen) and protein concentration was determined using the BCA Protein Assay with BSA (Sigma–Aldrich) as standard. Protein extracts (150 µg per sample, n=3 biological replicates) from each WT and KO cells were trypsin digested using the FASP Protein Digestion Kit (Expedeon Ltd., Abcam, Cambridge, U.K.) and sequencing grade trypsin (Promega, Madison, WI, U.S.A.) following manufacturer’s recommendations. The resulting peptides were finally desalted on to OMIX Pipette tips C18 (Agilent Technologies, Santa Clara, CA, U.S.A.), dried down and stored at −20 °C until mass spectrometry analysis. […] Three micrograms of each protein digest from the three biological replicates of WT and akirin2 KO HL60 cells were used for the generation of the reference spectral ion library as part of the SWATH-MS analysis.
Peptides were eluted in a 120-min gradient from 5 to 30% solvent B in solvent A followed by 15-min gradient from 30 to 60% solvent B in solvent A (solvent A: 0.1% formic acid in water, solvent B: 0.1% formic acid in acetonitrile) and directly injected into the mass spectrometer for analysis. For IDA experiments, the mass spectrometer was set to scanning full spectra (350–1400 m/z) using 250 ms accumulation time per spectrum, followed by up to 50 MS/MS scans (100–1500 m/z). Candidate ions with a charge state between +2 and +5 counts per second above a minimum threshold of 100 were isolated for fragmentation. One MS/MS spectrum was collected for 100 ms, before adding those precursor ions to the exclusion list for 15 s (mass spectrometer operated by Analyst TF 1.6, AB Sciex). Dynamic background subtraction was turned off. MS/MS analyses were recorded in high-sensitivity mode with rolling collision energy on and a collision energy spread of 5. For SWATH quantitative analysis, six independent samples (three replicates from WT and akirin2 KO HL60 cells, 5 µg each) were subjected to the cyclic DIA of mass spectra using the SWATH variable windows calculator (V 1.0, AB Sciex) and the SWATH acquisition method editor (AB Sciex), similar to established methods. […] For these experiments, a 50-ms survey scan (350–1400 m/z) was acquired at the beginning of each cycle, and SWATH–MS/MS spectra were collected from 100–1500 m/z for 70 ms at high-sensitivity mode, resulting in a cycle time of 3.6 s. Collision energy for each window was determined according to the calculation for a charge +2 ion-centered upon the window with a collision energy spread of 15. […] The detected protein threshold was set at 0.05. […] Global normalization was performed according to the Total Area Sums (TAS) of all detected proteins in the samples. […]

Where [1] appears, read: SWATH-MS, akirin2 KO vs WT HL60 cells, over-represented in KO.
Setting [2] is: KO vs WT HL60 cells, sheet "Under-represented in KO".

B1: sp¦P15374¦UCHL3_HUMAN (protein, UniProt P15374 1-230, looked up)
Ubiquitin carboxyl-terminal …: MEGQRWLPLEANPEVTNQFLKQLGLHPNWQFVDVYGMDPELLSMVPRPVCAVLLLFPITEKYEVFRTEEEEKIKSQGQDVTSSVYFMKQTISNACGTIGLIHAIANNKDKMHFESGSTLKKFLEESVSMSPEERARYLENYDAIRVTHETSAHEGQTEAPSIDEKVDLHFIALVHVDGHLYELDGRKPFPINHGETSDETLLEDAIEVCKKFMERDPDELRFNAIALSAA
On to B1, for which, under setting [1], the “Fold Change” value came to 1.682 and the “Log (Fold Change)” value turned out to be 0.2258.

B2: sp¦O00425¦IF2B3_HUMAN (protein, UniProt O00425 1-579, looked up)
Insulin-like growth factor 2 …: MNKLYIGNLSENAAPSDLESIFKDAKIPVSGPFLVKTGYAFVDCPDESWALKAIEALSGKIELHGKPIEVEHSVPKRQRIRKLQIRNIPPHLQWEVLDSLLVQYGVVESCEQVNTDSETAVVNVTYSSKDQARQALDKLNGFQLENFTLKVAYIPDEMAAQQNPLQQPRGRRGLGQRGSSRQGSPGSVSKQKPCDLPLRLLVPTQFVGAIIGKEGATIRNITKQTQSKIDVHRKENAGAAEKSITILSTPEGTSAACKSILEIMHKEAQDIKFTEEIPLKILAHNNFVGRLIGKEGRNLKKIEQDTDTKITISPLQELTLYNPERTITVKGNVETCAKAEEEIMKKIRESYENDIASMNLQAHLIPGLNLNALGLFPPTSGMPPPTSGPPSAMTPPYPQFEQSETETVHLFIPALSVGAIIGKQGQHIKQLSRFAGASIKIAPAEAPDAKVRMVIITGPPEAQFKAQGRIYGKIKEENFVSPKEEVKLEAHIRVPSFAAGRVIGKGGKTVNELQNLSSAEVVVPRDQTPDENDQVVVKITGHFYACQVAQRKIQEILTQVKQHQQQKALQSGPPQSRRK
On to B2, for which, under setting [2], the “Fold Change” value is 0.514 and the “Log (Fold Change)” value was -0.289.

These data come from publication PMC8298264, “Function of cofactor Akirin2 in the regulation of gene expression in model human neutrophil-like HL60 cells” (Bioscience Reports, 2021).
